EP0755938B1, “Ligated polyoxometalates and method for their synthesis” (THE B.F. GOODRICH COMPANY, priority 1995, dated 1997)

Experiment: Solubility of the isolated product in organic solvents, as noted in the synthesis examples
Format: physicochemical

For “[(C12H25)3NH]4{(HP)2Mo5O21} [Example 20]”, the soluble in hexane (hexane) was “soluble”.

In the case of “[(C13H27)2NH2]4{(C6H5P)2Mo5O21} [Example 21]”, the soluble in cyclohexane (cyclohexane) is reported as “soluble”.
